# Species: Homo sapiens
# Experiment: Selectivity index, ratio of IC50 for human recombinant MAO-A expressed in insect cells microsomes to IC50 for human recombinant MAO-B expressed in insect cells microsomes
# Procedure, shortened: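 Recombinant human MAO-A and MAO-B as enzyme sources with kynuramine as non-selective substrate; product 4-hydroxyquinoline read by fluorescence spectrophotometry. Activity measured across a range of inhibitor concentrations, sigmoidal rate vs log[inhibitor] curves fitted for IC50; triplicate measurements, mean ± SD. Top concentration tested 100 µM. SI taken as IC50(MAO-A)/IC50(MAO-B).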
smiles,measurement,value
NS(=O)(=O)c1ccc(-c2nnc(-c3ccc(Cl)c(Cl)c3)o2)cc1,Ratio IC50,17100

# Source: ChEMBL document CHEMBL4304818, “1,3,4-Oxadiazol-2-ylbenzenesulfonamides as privileged structures for the inhibition of monoamine oxidase B” (Bioorg Med Chem Lett, 2019)
